Earlier results as cited in US7112654B2, “Ligand for vascular endothelial growth factor receptor” (Supratek Pharma Inc., priority 2001, dated 2006).

The chains behind the UniProt entries cited, without tags or fusion partners. Residues count along the entry.
UniProt P35968, 20-1356: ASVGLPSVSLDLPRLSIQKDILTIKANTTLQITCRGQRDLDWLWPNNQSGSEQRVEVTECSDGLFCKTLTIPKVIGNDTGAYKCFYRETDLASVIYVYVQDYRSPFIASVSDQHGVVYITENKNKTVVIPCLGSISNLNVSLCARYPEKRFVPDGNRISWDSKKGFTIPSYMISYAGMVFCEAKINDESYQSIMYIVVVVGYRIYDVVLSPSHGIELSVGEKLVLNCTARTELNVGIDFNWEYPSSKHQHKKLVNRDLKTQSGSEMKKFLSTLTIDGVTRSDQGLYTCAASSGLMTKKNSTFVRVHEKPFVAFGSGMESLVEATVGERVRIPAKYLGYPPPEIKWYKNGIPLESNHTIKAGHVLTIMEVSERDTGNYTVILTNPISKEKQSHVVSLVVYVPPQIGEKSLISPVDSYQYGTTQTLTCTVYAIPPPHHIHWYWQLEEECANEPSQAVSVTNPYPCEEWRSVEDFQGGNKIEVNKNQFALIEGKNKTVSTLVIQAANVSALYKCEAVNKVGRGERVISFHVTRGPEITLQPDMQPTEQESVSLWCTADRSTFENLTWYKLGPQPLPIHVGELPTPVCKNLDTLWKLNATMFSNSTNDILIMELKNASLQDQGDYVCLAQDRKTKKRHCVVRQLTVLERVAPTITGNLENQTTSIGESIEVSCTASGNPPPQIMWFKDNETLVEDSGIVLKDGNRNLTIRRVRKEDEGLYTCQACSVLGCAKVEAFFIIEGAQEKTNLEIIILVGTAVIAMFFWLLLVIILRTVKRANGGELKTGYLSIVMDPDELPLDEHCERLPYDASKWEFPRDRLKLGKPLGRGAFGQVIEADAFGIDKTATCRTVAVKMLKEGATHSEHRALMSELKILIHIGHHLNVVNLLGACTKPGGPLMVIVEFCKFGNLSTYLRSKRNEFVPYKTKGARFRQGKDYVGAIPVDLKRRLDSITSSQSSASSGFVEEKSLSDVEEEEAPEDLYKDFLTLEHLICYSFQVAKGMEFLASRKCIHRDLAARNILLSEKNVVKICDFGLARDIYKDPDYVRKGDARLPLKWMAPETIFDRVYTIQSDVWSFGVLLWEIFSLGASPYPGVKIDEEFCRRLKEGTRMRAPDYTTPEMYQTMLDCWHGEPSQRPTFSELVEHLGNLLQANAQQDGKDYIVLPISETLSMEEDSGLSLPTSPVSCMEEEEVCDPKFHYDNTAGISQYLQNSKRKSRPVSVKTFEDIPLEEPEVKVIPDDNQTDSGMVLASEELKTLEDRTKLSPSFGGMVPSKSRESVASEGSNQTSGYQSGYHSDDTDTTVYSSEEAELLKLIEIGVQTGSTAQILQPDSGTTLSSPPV

Target: KDR receptor (Homo sapiens, UniProt P35968)
Conditions: cited from earlier work

## VEGF
  Kd: 0.075 to 0.125 nM
